Test results taken from patent US20220087946A1, “COMPOSITIONS, METHODS, SYSTEMS AND/OR KITS FOR PREVENTING AND/OR TREATING NEOPLASMS” (Research Cancer Institute of America, priority 2017, published 2022).

System: stage four bilateral infiltrating moderately differentiated ductal carcinoma
Assay: Case study Example 19: stage four breast ductal carcinoma

For “TDM-1: Kadcyla (TDM-1), one injection received in Example 19”, the CEA (388 at start, successive measurements, before TDM-1 669, after TDM-1 972) was 972, the toxic side effects (in vivo) was “significant toxicity” and the “CA 15-3” value (successive measurements, before TDM-1 695) was 1062. The “CA 27.29” value (successive measurements, before TDM-1 763) was 1313.
